Source: patent US7205403B2, “8-Heteroaryl xanthine adenosine A2B receptor antagonists” (King Pharmaceuticals Research and Development, Inc., priority 2002, dated 2007)

The chains behind the UniProt entries cited, without tags or fusion partners.
UniProt P30542, whole entry: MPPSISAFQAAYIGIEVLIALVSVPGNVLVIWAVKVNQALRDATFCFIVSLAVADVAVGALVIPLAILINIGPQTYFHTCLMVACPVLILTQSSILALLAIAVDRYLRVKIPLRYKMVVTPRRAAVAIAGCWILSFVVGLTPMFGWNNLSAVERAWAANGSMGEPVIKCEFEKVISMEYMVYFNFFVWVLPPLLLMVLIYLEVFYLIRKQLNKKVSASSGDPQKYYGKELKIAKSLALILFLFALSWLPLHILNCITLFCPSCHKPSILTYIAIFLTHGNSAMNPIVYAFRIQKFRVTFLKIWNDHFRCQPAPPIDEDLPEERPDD

Target: human A1 adenosine receptor (Homo sapiens, UniProt P30542)
Test: [3H]DPCPX binding to human A1 receptors expressed in CHO cells
Conditions: read-out: Ki, [3H]DPCPX binding to human A1 receptors expressed in CHO cells; geometric mean (95% confidence interval); >1000 = no appreciable binding

`CCCn1c(=O)c2[nH]c(-c3cc(NC(=O)Cc4ccccc4)n(C)n3)nc2n(CCC)c1=O` [AS35] was tested, and the Ki was 55 nM.
